Consider 54 compounds from PubChem BioAssay AID602162 (NMMLSC, 2011).

Amino acid sequences for entries named in this document (tags omitted).
UniProt Q9NP58, whole entry: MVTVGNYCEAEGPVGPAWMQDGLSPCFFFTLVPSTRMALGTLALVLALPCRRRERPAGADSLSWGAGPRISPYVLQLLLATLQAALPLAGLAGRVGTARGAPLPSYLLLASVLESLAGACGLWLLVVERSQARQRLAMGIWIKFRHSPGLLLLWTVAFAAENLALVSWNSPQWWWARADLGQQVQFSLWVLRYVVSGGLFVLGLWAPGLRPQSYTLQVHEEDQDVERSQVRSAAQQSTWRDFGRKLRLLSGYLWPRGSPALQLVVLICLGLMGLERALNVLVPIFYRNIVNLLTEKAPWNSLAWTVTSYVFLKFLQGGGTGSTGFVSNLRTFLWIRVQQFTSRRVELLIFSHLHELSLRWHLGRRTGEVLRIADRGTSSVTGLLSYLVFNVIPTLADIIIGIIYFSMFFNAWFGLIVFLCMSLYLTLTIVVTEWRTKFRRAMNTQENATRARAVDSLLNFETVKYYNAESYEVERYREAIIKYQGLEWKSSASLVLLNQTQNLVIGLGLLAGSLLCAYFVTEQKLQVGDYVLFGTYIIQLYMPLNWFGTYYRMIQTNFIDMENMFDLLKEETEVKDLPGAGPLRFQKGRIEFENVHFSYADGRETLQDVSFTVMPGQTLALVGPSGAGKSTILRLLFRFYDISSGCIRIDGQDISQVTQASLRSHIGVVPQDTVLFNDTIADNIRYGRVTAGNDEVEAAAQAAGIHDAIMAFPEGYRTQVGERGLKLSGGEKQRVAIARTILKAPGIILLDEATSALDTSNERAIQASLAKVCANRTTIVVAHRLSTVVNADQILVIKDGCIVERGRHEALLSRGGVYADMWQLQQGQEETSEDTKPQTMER

SMILES strings stand for the structures. Only a part is listed here, and it is no random draw. Active and inactive are the calls of the source.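 How the source made its calls: active means fluorescence ratio to DMSO below 75%, the collection mean minus 3 SD; inconclusive means too few cells collected in the well; inactive means the rest.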

For the test, the target named is ATP-binding cassette sub-family B member 6 (Homo sapiens) (UniProt Q9NP58). As to the kind of experiment: ABCB6 transporter inhibitors, primary screen, K562-ABCB6 cells, flow cytometry, MLPCN library (AID 602162).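 Further: signal is porphyrin accumulated inside mitochondria; 100% equals median channel fluorescence of DMSO control wells; lower ratio means ABCB6 inhibition with less porphyrin fluorescence.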 To be noted: K562-ABCB6 porphyrin accumulation, 1 h, at 10 µM, active compounds read low.
As for `CCCCn1nnnc1C(c1cccc(OC)c1OC)N1CCC(n2c(=O)[nH]c3ccccc32)CC1` (centres undefined), the fluorescence ratio to DMSO was inactive: 97%. On to `O=C(OC1CN2CCC1CC2)C1c2ccccc2C=Cc2ccccc21` (centres undefined), for which the fluorescence ratio to DMSO is inactive: 93%.

Consider `O=c1[nH]c2ccccc2n1C1CCN(C(c2cccs2)c2nnnn2C2CCCC2)CC1` (centres undefined), for which the fluorescence ratio to DMSO was inactive: 97%.

Regarding `N/C(=N\O)c1c(N)no[n+]1[O-]`, the fluorescence ratio to DMSO was inactive: 99%. Take `COc1cccc(C(c2nnnn2C(C)(C)C)N2CCC(n3c(=O)[nH]c4ccccc43)CC2)c1OC` (centres undefined): the fluorescence ratio to DMSO was inactive: 88%. To `CCOC(=O)N1CCC(Nc2ccc(C)cc2)CC1` belongs inactive: 100%. Turning to `COc1ccc(C(=O)NCC2(N3CCOCC3)CCCCC2)cc1OC`, the fluorescence ratio to DMSO was inactive: 96%.

For `O=c1[nH]c2ccccc2n1C1CCN(C(c2ccnc3ccccc23)c2nnnn2C2CCCC2)CC1` (centres undefined), the fluorescence ratio to DMSO was inactive: 155%. Turning to `O=c1[nH]c2ccccc2n1C1CCN(C(c2cccs2)c2nnnn2C2CCCCC2)CC1` (centres undefined), the fluorescence ratio to DMSO is inactive: 87%. Take `O=C(NCC1(N2CCOCC2)CCCCC1)c1cc(Br)ccc1Cl`: the fluorescence ratio to DMSO is inactive: 102%. To `CCCCn1nnnc1C(c1ccccc1)N1CCC(n2c(=O)[nH]c3ccccc32)CC1` (centres undefined) belongs inactive: 91%; to `COc1cc(C(=O)NCC2(N3CCOCC3)CCCCC2)cc(OC)c1C`, inactive: 98%; to `CC(C)(C)n1nnnc1C(c1cccc2ccccc12)N1CCC(n2c(=O)[nH]c3ccccc32)CC1` (centres undefined), inactive: 96%. To `c1ccc(CN2CCC(Nc3ccccc3)CC2)cc1` belongs inactive: 93%. Next, `Cc1cc(N(CCCl)CCCl)ccc1C=O`: inactive: 94%.

Take `CCCN1CCC(Nc2cc(OC)cc(OC)c2)CC1`: the fluorescence ratio to DMSO was inactive: 102%.

With `O=c1[nH]c2ccccc2n1C1CCN(C(c2ccccc2)c2nnnn2C2CCCC2)CC1` (centres undefined), the fluorescence ratio to DMSO is inactive: 95%. To `CN(C)C1(CNC(=O)c2cccc(C#N)c2)CCCCC1` belongs inactive: 102%; to `CC(C)(C)OC(=O)N1CCC(N(C(=O)c2ccccc2)c2ccc(Cl)cc2)CC1`, inactive: 98%. `N#Cc1ccc(C(=O)NCC2(N3CCCCC3)CCCCC2)cc1`: the fluorescence ratio to DMSO was inactive: 93%. In the case of `O=C(NCC1(N2CCCCC2)CCCCC1)c1ccco1`, the fluorescence ratio to DMSO is inactive: 111%. Next, `Cn1c(=O)[nH]cc(N(CCCl)CCCl)c1=O`: inactive: 100%; `CN(C)c1ccc(C(=O)NCC2(N3CCCCC3)CCCCC2)cc1`: inactive: 101%; `Cc1ccccc1NC1(C#N)CCN(Cc2ccccc2)CC1`: inactive: 96%. To `CC(C)(C)n1nnnc1C(c1ccnc2ccccc12)N1CCC(n2c(=O)[nH]c3ccccc32)CC1` (centres undefined) belongs inactive: 96%; to `CCN1CCC(Nc2cccc(F)c2)CC1`, inactive: 92%. Next, `COc1ccc(C(c2nnnn2C2CCCCC2)N2CCC(n3c(=O)[nH]c4ccccc43)CC2)cc1` (centres undefined): inactive: 101%; `Cc1ccc(NC2(C#N)CCN(Cc3ccccc3)CC2)cc1`: inactive: 98%. Take `Cc1ccc(C(=O)NCC2(N3CCCCC3)CCCCC2)o1`: the fluorescence ratio to DMSO was inactive: 95%. For the compound `Fc1ccccc1NC1CCN(Cc2ccccc2)CC1`, the fluorescence ratio to DMSO is inactive: 98%.

As for `O=c1[nH]c2ccccc2n1C1CCN(C(c2ccnc3ccccc23)c2nnnn2C2CCCCC2)CC1` (centres undefined), the fluorescence ratio to DMSO is inactive: 95%. In the case of `COc1cc(OC)cc(C(=O)NCC2(N3CCCCC3)CCCCC2)c1`, the fluorescence ratio to DMSO is inactive: 97%.

In the case of `CC(=O)N(c1ccccc1)C1CCNCC1`, the fluorescence ratio to DMSO is inactive: 99%. For `COc1cccc(C(c2nnnn2C2CCCCC2)N2CCC(n3c(=O)[nH]c4ccccc43)CC2)c1OC` (centres undefined), the fluorescence ratio to DMSO is inactive: 95%. Next, `CCC(c1nnnn1C1CCCCC1)N1CCC(n2c(=O)[nH]c3ccccc32)CC1` (centres undefined): inactive: 100%; `CN1CCC(Nc2ccc(Cl)cc2)CC1`: inactive: 99%; `CCC(CO)(C(=O)OC1CN2CCC1CC2)c1ccccc1` (centres undefined): inactive: 103%. Next, `COc1cc(OC)cc(C(=O)NCC2(N3CCOCC3)CCCCC2)c1`: inactive: 97%. In the case of `COc1cccc(C(c2nnnn2C2CCCC2)N2CCC(n3c(=O)[nH]c4ccccc43)CC2)c1OC` (centres undefined), the fluorescence ratio to DMSO was inactive: 94%. Consider `COc1cccc(C(=O)N(c2cc(C)cc(C)c2)C2CCN(C(=O)OC(C)(C)C)CC2)c1`, for which the fluorescence ratio to DMSO is inactive: 98%.

On to `CCCOc1ccc(C(=O)NCC2(N(C)C)CCCCC2)cc1`, for which the fluorescence ratio to DMSO is inactive: 97%.

In the case of `O=c1[nH]c2ccccc2n1C1CCN(C(c2cc3ccccc3o2)c2nnnn2C2CCCC2)CC1` (centres undefined), the fluorescence ratio to DMSO is inactive: 98%. For the compound `CC(C)(C)OC(=O)N1CCC(Nc2ccccc2)CC1`, the fluorescence ratio to DMSO is inactive: 99%.

Take `O=C(O)C1(Nc2ccccc2)CCN(Cc2ccccc2)CC1`: the fluorescence ratio to DMSO was inactive: 96%.

For `NN(c1ccccc1)C1CCN(CCc2ccccc2)CC1`, the fluorescence ratio to DMSO is inactive: 99%. To `CCOc1ncccc1C(=O)NCC1(N2CCOCC2)CCCCC1` belongs inactive: 97%. For the compound `CN1CCC(Nc2ccc(F)c(Cl)c2)CC1`, the fluorescence ratio to DMSO was inactive: 102%. `CCOC(=O)N1CCC(Nc2ccc(OC)cc2)CC1`: the fluorescence ratio to DMSO is inactive: 103%. Consider `CCCCn1nnnc1C(c1ccc(OC)cc1)N1CCC(n2c(=O)[nH]c3ccccc32)CC1` (centres undefined), for which the fluorescence ratio to DMSO was inactive: 96%. Take `O=C(OC1CN2CCC1CC2)C1c2ccccc2Oc2ccccc21` (centres undefined): the fluorescence ratio to DMSO was inactive: 108%. As to `O=c1[nH]c2ccccc2n1C1CCN(C(c2cc3ccccc3o2)c2nnnn2C2CCCCC2)CC1` (centres undefined), the fluorescence ratio to DMSO was inactive: 103%.

Regarding `O=C(NCC1(N2CCCCC2)CCCCC1)c1ccc(Cl)s1`, the fluorescence ratio to DMSO is inactive: 102%. On to `N#CC1(Nc2ccccc2)CCN(Cc2ccccc2)CC1`, for which the fluorescence ratio to DMSO is inactive: 94%. With `COc1ccc(Cl)cc1C(=O)NCC1(N2CCOCC2)CCCCC1`, the fluorescence ratio to DMSO is inactive: 101%.
